As a reminder, the inhibition is the relative decrease from the control value, in per cent.

Sequences of proteins named here, by UniProt entry; tags and fusion partners are left off.
UniProt P14598, whole entry: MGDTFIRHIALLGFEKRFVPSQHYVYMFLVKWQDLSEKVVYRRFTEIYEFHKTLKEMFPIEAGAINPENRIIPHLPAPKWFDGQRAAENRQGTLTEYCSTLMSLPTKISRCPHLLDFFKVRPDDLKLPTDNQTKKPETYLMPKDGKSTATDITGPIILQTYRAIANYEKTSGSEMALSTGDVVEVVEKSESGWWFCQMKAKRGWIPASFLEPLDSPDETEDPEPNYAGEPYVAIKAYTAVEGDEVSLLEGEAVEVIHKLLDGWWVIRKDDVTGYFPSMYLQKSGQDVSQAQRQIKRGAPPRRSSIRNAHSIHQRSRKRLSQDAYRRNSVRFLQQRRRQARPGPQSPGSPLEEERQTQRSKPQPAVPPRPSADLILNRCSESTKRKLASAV

Structures are written as SMILES. The list shows a part of the results, in another mix than the full data. Some results for these compounds are left out of this collection, so the calls shown say nothing about other tests. The source made the active and inactive calls.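 The calls were made as follows: active = inhibition above about 30% (limit read from the data); inactive = the rest.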

For the test, the target named is Neutrophil cytosol factor 1 (Homo sapiens) (UniProt P14598). The experiment in a line: p47phox/p22phox peptide binding inhibitors, primary screen, biochemical, uHTS, NADPH oxidase regulatory subunit (AID 1274).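 Also: 0% = p47phox with labelled peptide and 100% = labelled peptide alone.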 The settings on record: fluorescence polarization, 2 h, at 24.7 µM, active compounds read high. On the technique in general: Polarisation of emitted light reports the rotation of a fluorescent probe.
As to `COc1cccc(C(=O)NCC2(N3CCCCC3)CCCCC2)c1`, the inhibition was inactive: -6.68%.
As to `O=C(OC1CN2CCC1CC2)C(CO)(c1ccccc1)c1ccccc1` (stereo unspecified), the inhibition was inactive: -14.3%.
Consider `CN(C)c1cccc(C(=O)NCC2(N(C)C)CCCCC2)c1`, for which the inhibition was inactive: -2.7%.
In the case of `COc1ccc(Br)c(C(=O)NCC2(N3CCCCC3)CCCCC2)c1`, the inhibition was inactive: -93.1%.
Take `O=C(NCC1(N2CCCCC2)CCCCC1)c1cc([N+](=O)[O-])ccc1Cl`: the inhibition is inactive: -0.17%.
As to `CC(C)N1C(=O)CC2(CCN(CCOC(=O)C(O)(c3ccccc3)c3ccccc3)CC2)C1=O`, the inhibition was inactive: 3.37%.
Under `CCN(CC)CC(C)C(C)OC(=O)C(O)(c1ccccc1)c1ccccc1` (stereo unspecified) stands inactive: -7.59%; under `Cc1ccccc1C(=O)NCC1(N2CCCCC2)CCCCC1`, inactive: -42.2%.
The result for `CN(C)C1CCCC1OC(=O)C(O)(c1ccccc1)c1ccccc1` (stereo unspecified) reads inactive: -11.5%; that for `CCN1CCCC(OC(=O)C2(O)c3ccccc3C=Cc3ccccc32)C1` (stereo unspecified), inactive: -2.58%; that for `C=CCN1CCN(CCOC(=O)C(O)(c2ccccc2)c2ccccc2)CC1`, inactive: 0.77%.

(Values after PubChem BioAssay AID1274 (Emory University Molecular Libraries Screening Center, 2008).)
